In patent publication US11684644B2, “Composition for promoting absorption of phytochemicals” (MEIJI CO., LTD., priority 2018, dated 2023):

Test: Evaluation for dissolvability of phytochemical (dissolution rate in water)
Settings: concentration of the centrifuged supernatant after shaking in ultrapure water, 21±2° C.; glucosides in terms of the aglycone
From the text: In the present invention, the “dissolution rate” is an index indicating dissolvability of a compound into water, and is also represented by the value, in terms of the percentage (%), obtained by dividing a concentration (w/v) of the compound in a supernatant, which is obtained by shaking the compound in pure water to dissolve the compound therein and by centrifuging the solution, by a concentration (w/v) of the compound in pure water before being dissolved therein. The concentration may be measured by using a spectrophotometer. […] The temperature condition in the measurement of the “dissolution rate” is set to 21±2° C.
Furthermore, 10 mL of ultrapure water was added to the glucoside phytochemical such that the amount of aglycone (portion other than carbohydrate obtained by hydrolysis of glucoside) can be equal to 33.3 mg; namely, 67.3 mg of rutin (33.3 mg of quercetin); 89.6 mg of α-glucosyl rutin (33.3 mg of quercetin); 67.3 mg of hesperidin (33.3 mg of hesperetin); or 71.0 mg of naringin (33.3 mg of naringenin). As for the terpenoids, in accordance with the administering amount used in Experiments, 10 mL of ultrapure water was added to 3.3 mg of each of β-carotene and lycopene. The solutions thus prepared were shaken for 3 hours, and then, were centrifuged at 2000×g for 10 minutes. […] The dissolution rate was calculated in accordance with the following formula. […]

Work on Catechin yielded a Saturated solubility of 323 mg/100 g.
